PMC8474115 (Journal of Medicinal Chemistry, 2021)
Structures can show the parent of a compound that is named as a salt. Where two headings read alike, the source gives them in different places.

Amino acid sequences for entries named in this document (tags omitted). Residues count along the entry.
UniProt P50406, whole entry: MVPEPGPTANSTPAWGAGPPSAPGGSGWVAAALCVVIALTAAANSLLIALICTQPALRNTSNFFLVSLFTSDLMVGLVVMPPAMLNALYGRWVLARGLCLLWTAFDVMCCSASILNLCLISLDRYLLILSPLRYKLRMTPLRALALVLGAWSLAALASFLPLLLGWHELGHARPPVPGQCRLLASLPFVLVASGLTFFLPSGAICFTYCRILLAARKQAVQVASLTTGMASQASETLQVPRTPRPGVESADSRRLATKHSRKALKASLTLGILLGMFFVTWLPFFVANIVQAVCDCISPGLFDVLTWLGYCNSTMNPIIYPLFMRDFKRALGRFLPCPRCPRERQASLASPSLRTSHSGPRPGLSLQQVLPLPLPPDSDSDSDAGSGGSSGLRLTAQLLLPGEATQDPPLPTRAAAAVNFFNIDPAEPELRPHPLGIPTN
UniProt P28223, whole entry, looked up: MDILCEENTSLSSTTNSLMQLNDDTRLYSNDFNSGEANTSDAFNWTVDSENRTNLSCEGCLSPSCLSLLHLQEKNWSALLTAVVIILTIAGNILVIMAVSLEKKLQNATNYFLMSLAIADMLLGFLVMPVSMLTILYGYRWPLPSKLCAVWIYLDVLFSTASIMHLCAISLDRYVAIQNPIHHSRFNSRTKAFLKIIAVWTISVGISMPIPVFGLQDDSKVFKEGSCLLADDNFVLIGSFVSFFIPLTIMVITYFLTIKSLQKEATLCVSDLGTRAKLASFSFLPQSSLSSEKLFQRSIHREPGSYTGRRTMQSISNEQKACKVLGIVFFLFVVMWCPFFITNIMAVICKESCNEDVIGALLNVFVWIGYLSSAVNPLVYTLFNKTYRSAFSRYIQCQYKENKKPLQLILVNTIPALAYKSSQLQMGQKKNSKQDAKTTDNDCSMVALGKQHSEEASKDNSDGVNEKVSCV
UniProt P34969, 1-432 limits assumed: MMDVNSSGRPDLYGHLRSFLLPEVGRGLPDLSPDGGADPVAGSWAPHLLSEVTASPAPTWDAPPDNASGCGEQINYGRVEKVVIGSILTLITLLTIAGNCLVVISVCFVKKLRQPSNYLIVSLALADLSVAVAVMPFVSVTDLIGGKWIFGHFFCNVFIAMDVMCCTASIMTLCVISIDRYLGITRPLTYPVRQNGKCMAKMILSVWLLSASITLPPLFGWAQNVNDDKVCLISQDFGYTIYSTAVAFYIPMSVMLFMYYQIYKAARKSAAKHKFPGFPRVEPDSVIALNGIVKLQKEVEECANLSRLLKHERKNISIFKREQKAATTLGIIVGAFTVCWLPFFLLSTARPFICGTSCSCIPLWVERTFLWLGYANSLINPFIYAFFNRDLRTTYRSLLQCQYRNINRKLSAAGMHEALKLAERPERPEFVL
UniProt P34969, whole entry: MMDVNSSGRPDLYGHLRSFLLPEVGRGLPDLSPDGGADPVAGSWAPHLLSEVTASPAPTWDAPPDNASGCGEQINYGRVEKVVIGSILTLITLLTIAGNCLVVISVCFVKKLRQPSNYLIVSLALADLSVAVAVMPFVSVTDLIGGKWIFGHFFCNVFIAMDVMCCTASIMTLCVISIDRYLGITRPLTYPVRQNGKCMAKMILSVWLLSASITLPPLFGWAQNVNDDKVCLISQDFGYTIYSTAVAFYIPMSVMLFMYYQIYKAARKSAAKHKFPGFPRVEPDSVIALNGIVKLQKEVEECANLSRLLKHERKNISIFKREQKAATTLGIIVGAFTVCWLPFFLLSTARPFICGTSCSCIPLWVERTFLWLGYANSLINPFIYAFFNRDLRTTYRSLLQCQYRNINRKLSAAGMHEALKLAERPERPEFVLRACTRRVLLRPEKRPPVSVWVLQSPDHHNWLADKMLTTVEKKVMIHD
UniProt O70212, 20-490: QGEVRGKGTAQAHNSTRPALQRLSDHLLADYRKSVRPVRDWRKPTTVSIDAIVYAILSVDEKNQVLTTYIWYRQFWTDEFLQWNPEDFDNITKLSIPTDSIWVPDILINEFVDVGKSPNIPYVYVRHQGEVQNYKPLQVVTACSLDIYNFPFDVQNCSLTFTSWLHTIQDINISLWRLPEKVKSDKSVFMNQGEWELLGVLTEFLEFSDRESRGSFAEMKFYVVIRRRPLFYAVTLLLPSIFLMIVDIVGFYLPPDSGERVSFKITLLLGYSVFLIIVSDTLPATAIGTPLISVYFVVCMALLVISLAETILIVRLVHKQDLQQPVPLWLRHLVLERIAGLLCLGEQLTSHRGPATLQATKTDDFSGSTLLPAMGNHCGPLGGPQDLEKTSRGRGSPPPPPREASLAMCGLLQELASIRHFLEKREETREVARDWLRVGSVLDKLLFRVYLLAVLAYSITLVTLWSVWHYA

Legend:
h5-HT6R = h5-HT6R (Homo sapiens, UniProt P50406); test: Inhibition of 5-CT-induced cAMP production in 1321N1 cells expressing h5-HT6R; assay type: cell-based; design: host or cells: 1321N1; conditions: 10^–6 M, percent inhibition of control agonist response
Protein Set/Thr Kinase = conditions: 10 μM
[1] = system: Glycine, Strychnine-sensitive; conditions: 10 μM
Glutamate NMDA, Agonism = conditions: 10 μM
[2] = system: GABAA Flunitrazepam, Central; conditions: 10 μM
[3] = pH 1.2 and 8.0
in vivo = conditions: male, Lister Hooded, rat, po, 3 mg/kg
male Sprague–Dawley rats [4] = conditions: AUC −25 to 0 min before PCP
male Sprague–Dawley rats [5] = system: male Sprague–Dawley rats
[6] = system: Glutamate NMDA, Phencyclidine; conditions: 10 μM
PDE4 = conditions: 10 μM
Nicotinic Acetylcholine = conditions: 10 μM
Glutamate AMPA = conditions: 10 μM
[7] = system: Glutamate NMDA, Polyamine; conditions: 10 μM
[8] = system: GABAA Chloride channel, TBOB; conditions: 10 μM
[9] = system: GABAA Ro-15-1788, Hippocampus; conditions: 10 μM
[10] = system: Potassium Channel [K ATP]; conditions: 10 μM
PDE3 = conditions: 10 μM
h5-HT2AR = h5-HT2AR (Homo sapiens, UniProt P28223); conditions: 5-HT2AR
Glutamate Kainate = conditions: 10 μM
Adenosine Transporter = conditions: 10 μM
[11] = system: Salmonella Typhimurium tester strains TA98, TA100, TA1535, and TA1537
Na+/K+ ATPase = conditions: 10 μM
h5-HT7b = h5-HT7b (Homo sapiens, UniProt P34969); conditions: 5-HT7R
Serotonin 5-HT7 = molecular target: T1, Serotonin 5-HT7 (Homo sapiens, UniProt P34969); test: Eurofins SafetyScreen panel; assay type: binding
T1 construct: Eurofins (contract assay) 272320

5-HT6R = molecular target: T2, 5-HT6R (Homo sapiens, UniProt P50406); test: 5-HT6R constitutive activity at Gs signaling (cAMP BRET sensor CAMYEL, NG108-15 cells); assay type: cell-based; conditions: agonist-independent Gs signaling
T2 construct: expressed in transfected cells; host or cells: NG108-15

[12] = system: NG108-15 cells transfected with GFP-tagged 5-HT6R; conditions: 1 μM, 24 h
5-HT3R = 5-HT3R (Cavia porcellus, UniProt O70212); conditions: 100 nM; percent of maximal contraction of guinea pig ileum induced by control agonist (5-HT)

With O=S(=O)(c1ccccc1)n1ccc2c(NC3CNC3)nc3ccccc3c21 [Compound 9, N-(Azetidin-3-yl)-1-(phenylsulfonyl)-1H-pyrrolo[3,2-c]quinolin-4-amine dihydrochloride] the antagonist effect (h5-HT6R) was 15%.
Molecule O=S(=O)(c1ccccc1)n1ccc2c(N3CCCNCC3)nc3ccccc3c21 [Compound 11, 4-(1,4-Diazepan-1-yl)-1-(phenylsulfonyl)-1H-pyrrolo[3,2-c]quinoline dihydrochloride] has an antagonist effect (h5-HT6R) of 41%.
With O=S(=O)(c1cccc(F)c1)n1ccc2c(N3CCNCC3)nc3ccccc3c21 [FPPQ, 1-[(3-Fluorophenyl)sulfonyl]-4-(piperazin-1-yl)-1H-pyrrolo[3,2-c]quinoline dihydrochloride] the “%inh” value (Protein Set/Thr Kinase) was -20%, the “%inh” value [1] was -1% and the “%inh” value (Glutamate NMDA, Agonism) was -2%. The “%inh” value [2] was 8%, the chemical stability [3] was “chemically stable” and the Tmax (in vivo) was 3 to 5 h. The “effect on spontaneous activity” value (male Sprague–Dawley rats [4]; 1 and 3 mg/kg PO) was “no sedative effects”, the “effect on PCP-induced hyperactivity” value (male Sprague–Dawley rats [5]; 1 and 3 mg/kg PO, AUC 0–60 min post-PCP (5 mg/kg SC)) was “decreased PCP-induced hyperactivity” and the “effect on PCP-induced hyperactivity” value (male Sprague–Dawley rats [5]; 1 and 3 mg/kg PO, AUC 65–120 min post-PCP (5 mg/kg SC)) was “decreased PCP-induced hyperactivity”. The “%inh” value [6] was 4%, the “%inh” value (PDE4) was 24% and the “%inh” value (Nicotinic Acetylcholine) was -6%. For the same molecule, the “%inh” value (Glutamate AMPA) was 8%, the “%inh” value [7] was 2% and the “%inh” value [8] was 8%. For the same molecule, the “%inh” value [9] was -5%, the “%inh” value [10] was 1% and the “%inh” value (PDE3) was 10%. The Ki (h5-HT2AR) was 3000 nM, the “%inh” value (Glutamate Kainate) was -2% and the “%inh” value (Adenosine Transporter) was 12%. The IC50 (Sodium Channel, Site 2) was 780 nM, the Ki (Sodium Channel, Site 2) was 710 nM and the “%inh” value (Sodium Channel, Site 2; 10 nM, additional batch) was 9%. The “%inh” value (Sodium Channel, Site 2; 0.1 μM) was 23%, the “%inh” value (Sodium Channel, Site 2; 1 μM) was 47% and the “%inh” value (Sodium Channel, Site 2; 10 μM) was 94%. For the same molecule, the “%inh” value (Sodium Channel, Site 2; 10 μM, additional batch) was 93%, the mutagenic potential ([11]; Salmonella mutagenic test) was “no mutagenic potential” and the Number of revertants ([11]; TA-98, 0.4 μg/ml) was 8 ± 4 revertants/plate. For the same molecule, the Number of revertants ([11]; TA-98, 4 μg/ml) was 10 ± 2 revertants/plate, the Number of revertants ([11]; TA-98, 8 μg/ml) was 8 ± 3 revertants/plate and the Number of revertants ([11]; TA-100, 4 μg/ml) was 8 ± 3 revertants/plate. It also gave a Number of revertants ([11]; TA-100, 8 μg/ml) of 8 ± 3 revertants/plate, a Number of revertants ([11]; TA-1535, 4 μg/ml) of 8 ± 4 revertants/plate and a Number of revertants ([11]; TA-1537, 16 μg/ml) of 8 ± 2 revertants/plate. The “%inh” value (Na+/K+ ATPase) was 1%, the Ki (h5-HT7b) was 3000 nM and the IC50 (Serotonin 5-HT7) was 5010 nM. The Ki (Serotonin 5-HT7) was 2870 nM.
O=S(=O)(c1ccccc1)n1ccc2c(N[C@H]3CCNC3)nc3ccccc3c21 [Compound 8, (S)-1-(Phenylsulfonyl)-N-(pyrrolidin-3-yl)-1H-pyrrolo[3,2-c]quinolin-4-amine dihydrochloride] gave an antagonist effect (h5-HT6R) of 93%.
With O=S(=O)(c1ccccc1)c1cnc2c(N3CCNCC3)cccc2c1 [intepirdine] the “effect on basal cAMP level” value (5-HT6R) was “strongly decreased basal cAMP level” and the “effect on neurite growth / neurite length” value [12] was “reduced NG108-15 cell neurite length”.
With O=S(=O)(c1cccc(Cl)c1)n1ccc2c(N[C@H]3CCNC3)nc3ccccc3c21 [CPPQ, (S)-1-[(3-chlorophenyl)sulfonyl]-4-(pyrrolidine-3-yl-amino)-1H-pyrrolo[3,2-c]quinolone] the “effect on spontaneous activity” value (male Sprague–Dawley rats [4]; CPPQ 3 mg/kg IP) was “sedative-like action” and the “effect on PCP-induced hyperactivity” value (male Sprague–Dawley rats [5]; CPPQ alone IP (0.3, 1 mg/kg), AUC 0–120 min post-PCP) was “did not increase activity”.
In the case of CN1CCN(c2nc3ccccc3c3[nH]ccc23)CC1 [Compound 5d, 4-(4-Methylpiperazin-1-yl)-1H-pyrrolo[3,2-c]quinoline], the agonist effect (5-HT3R) is reported as 100 (100 nM) %.
Molecule CNC1CCN(c2nc3ccccc3c3c2ccn3S(=O)(=O)c2ccccc2)C1 (stereo not shown) [Compound 10, N-Methyl-1-(1-(phenylsulfonyl)-1H-pyrrolo[3,2-c]quinolin-4-yl)pyrrolidin-3-amine dihydrochloride] has an antagonist effect (h5-HT6R) of 78%.
